Results on three compounds are retold here after US9126985B2, “Tetra- and pentasubstituted benzimidazolium compounds” (Boehringer Ingelheim International GmbH, priority 2013, dated 2015).

The chains behind the UniProt entries cited, without tags or fusion partners.
UniProt Q61180, whole entry: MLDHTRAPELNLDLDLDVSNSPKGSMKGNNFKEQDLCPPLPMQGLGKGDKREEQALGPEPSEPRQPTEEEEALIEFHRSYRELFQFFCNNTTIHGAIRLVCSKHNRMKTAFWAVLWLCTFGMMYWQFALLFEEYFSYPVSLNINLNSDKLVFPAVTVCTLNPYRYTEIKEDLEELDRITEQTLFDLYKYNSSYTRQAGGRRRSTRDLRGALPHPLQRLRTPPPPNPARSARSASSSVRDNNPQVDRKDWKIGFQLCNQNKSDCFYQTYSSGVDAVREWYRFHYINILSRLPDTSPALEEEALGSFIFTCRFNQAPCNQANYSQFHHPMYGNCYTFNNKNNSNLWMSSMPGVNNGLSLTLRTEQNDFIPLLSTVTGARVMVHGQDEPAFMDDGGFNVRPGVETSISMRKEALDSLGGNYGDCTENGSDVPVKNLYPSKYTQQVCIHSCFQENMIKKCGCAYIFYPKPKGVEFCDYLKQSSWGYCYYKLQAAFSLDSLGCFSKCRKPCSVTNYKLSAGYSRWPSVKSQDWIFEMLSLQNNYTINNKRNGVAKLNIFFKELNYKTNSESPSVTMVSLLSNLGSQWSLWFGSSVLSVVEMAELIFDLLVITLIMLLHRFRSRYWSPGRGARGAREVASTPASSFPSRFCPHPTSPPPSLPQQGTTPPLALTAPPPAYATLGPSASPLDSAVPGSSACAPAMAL
UniProt Q9WU38, whole entry: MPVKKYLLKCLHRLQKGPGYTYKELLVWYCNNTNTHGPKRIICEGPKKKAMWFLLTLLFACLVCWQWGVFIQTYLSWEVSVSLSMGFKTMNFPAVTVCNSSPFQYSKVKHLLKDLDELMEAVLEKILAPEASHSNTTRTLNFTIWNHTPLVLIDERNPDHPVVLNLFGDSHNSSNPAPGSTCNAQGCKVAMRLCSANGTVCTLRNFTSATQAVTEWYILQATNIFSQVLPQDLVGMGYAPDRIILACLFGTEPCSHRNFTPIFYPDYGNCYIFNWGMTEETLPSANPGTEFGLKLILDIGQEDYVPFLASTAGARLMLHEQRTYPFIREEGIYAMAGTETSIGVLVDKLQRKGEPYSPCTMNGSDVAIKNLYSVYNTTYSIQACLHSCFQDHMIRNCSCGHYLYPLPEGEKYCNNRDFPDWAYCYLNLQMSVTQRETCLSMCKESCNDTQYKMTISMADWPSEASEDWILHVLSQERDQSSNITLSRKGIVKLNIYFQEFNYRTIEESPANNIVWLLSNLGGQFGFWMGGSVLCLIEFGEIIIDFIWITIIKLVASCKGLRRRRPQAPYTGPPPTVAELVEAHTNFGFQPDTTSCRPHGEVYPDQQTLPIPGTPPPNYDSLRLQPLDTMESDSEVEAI
UniProt Q9WU39, whole entry: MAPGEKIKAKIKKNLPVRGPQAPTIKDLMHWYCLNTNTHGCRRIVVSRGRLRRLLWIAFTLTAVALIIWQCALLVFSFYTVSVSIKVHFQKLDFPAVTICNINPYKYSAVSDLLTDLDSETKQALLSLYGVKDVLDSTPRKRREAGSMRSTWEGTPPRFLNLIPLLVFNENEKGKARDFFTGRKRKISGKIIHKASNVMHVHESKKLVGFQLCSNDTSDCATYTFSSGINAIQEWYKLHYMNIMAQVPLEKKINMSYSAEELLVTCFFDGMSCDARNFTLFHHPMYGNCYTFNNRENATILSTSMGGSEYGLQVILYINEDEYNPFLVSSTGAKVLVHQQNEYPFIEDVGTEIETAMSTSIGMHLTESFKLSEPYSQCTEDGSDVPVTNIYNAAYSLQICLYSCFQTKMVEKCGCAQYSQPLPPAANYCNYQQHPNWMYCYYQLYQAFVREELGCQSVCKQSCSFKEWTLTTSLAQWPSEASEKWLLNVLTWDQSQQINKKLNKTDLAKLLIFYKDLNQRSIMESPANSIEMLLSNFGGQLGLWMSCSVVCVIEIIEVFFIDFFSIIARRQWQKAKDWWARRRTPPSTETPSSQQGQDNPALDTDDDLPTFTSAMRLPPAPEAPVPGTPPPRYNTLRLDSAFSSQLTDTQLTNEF

In series [1] the target is ENaC (Epithelial Sodium Channel) (Mus musculus, UniProt Q61180+Q9WU38+Q9WU39). Put plainly: Ussing Chamber assay: inhibition of amiloride sensitive short circuit current in M-1 cells. Conditions: Mouse kidney M-1 cells on transwell filters, compound added to apical solution, 37° C., tested form: trifluoroacetate. The protocol: Mouse kidney M-1 cells were cultivated in DMEM containing 5% FCS and 5 μM dexamethasone for 10 to 12 days on polyester transwell filters. Filters were inserted into a teflon-coated well-plate which fit into the ussing chamber system. Prior to measurement the medium of M-1 cells was replaced with Caco-2 transport buffer (Invitrogen, Germany). During measurements, the Ussing chamber temperature was kept at 37° C. Short circuit currents (I_sc) were measured in the voltage-clamp mode with the software package Lab View for data acquisition and analysis. The transepithelial electrical resistance (TEER) was determined by the application of voltage steps of ±5 mV every 5 sec. Compounds were administered at a final concentration of 3 μM or at increasing concentrations (1-3-10 μM) to the apical solution. At the end of each experiment the amiloride sensitive I_SC was measured by adding 3 μM amiloride to the apical compartment. Results are expressed as inhibition in percent of the amiloride effect or as IC50.
With the example compounds given above, the following IC50 values were determined in the Ussing Chamber assay: […]

A further series relates to CALU-3 cells. The series can be described thus: Permeability in CALU-3 cells. The conditions noted are these: CALU-3 cell monolayers, pH 7.4, 37° C., 10 μM compound, tested form: trifluoroacetate. The protocol: Permeability in CALU-3 Cells:
Permeability measurements across polarized, confluent CALU-3 cell monolayers grown on permeable filter supports are used to provide information on the potential of a compound to pass the lung epithelium. Apparent permeability coefficients (Papp) of the compounds across the CALU-3 cell monolayers are measured (pH 7.4, 37° C.) in apical-to-basal (AB) and basal-to-apical (BA) transport direction.
CALU-3 cells (1-2×10^5 cells/1 cm^2 area) are seeded on filter inserts (Costar transwell polycarbonate filters, 0.4 μm pore size) and cultured (for 10-12 days DMEM) until tight monolayers are formed. Compounds of interest are dissolved in appropriate solvent (DMSO, 10 mM stock solution). […] The compound concentration in the samples is measured by HPLC-MS/MS or scintillation counting. The permeability coefficient (Papp) and efflux ratio are calculated according to: Papp [cm/s]=(concentration receiver [nM]*volume receiver [mL]/time interval [sec])*(1/filter area)*(1/donor concentration [nM])
With example compounds given above, the following permeability values were determined in the CALU-3 cells assay: […]

In the case of `CCn1c(CNC(=O)c2nc(Cl)c(N)nc2N)[n+](CCCCn2cc(C(=O)N(C)C)ccc2=O)c2ccc(OCCO)cc21`, the IC50 in series [1] stood at 0.013 µM. Further, in the series on CALU-3 cells (apical-to-basal), the “Papp, AB” value is listed as 0.6 10^−6 cm/s. Moreover, the “Papp, BA” value with CALU-3 cells (basal-to-apical) is 0.05 10^−6 cm/s.

Take `CCn1c(CNC(=O)c2nc(Cl)c(N)nc2N)[n+](CCCC#N)c2ccc(O)cc21`: the IC50 in series [1] came out at 0.011 µM.

With `C=CC[n+]1c(CNC(=O)c2nc(Cl)c(N)nc2N)n(CC)c2cc(OCCCP(=O)(OCC)OCC)ccc21`, in series [1], the half-maximal inhibitory concentration (IC50) came to 0.001 µM.

Usually IC50 stands for the point on the concentration scale where inhibition reaches its midpoint. Low readings indicate inhibition by little substance, high ones a need for much substance.
